pKi: −log10 of the molar value.
Key:
[1] = target: T1, Cannabinoid receptor 2 (Homo sapiens, UniProt P34972); test: Binding affinity to human CB2 receptor
[2] = target: T1, Cannabinoid receptor 2; test: Displacement of [3H]HU-243 from human CB2 receptor
[3] = target: Cannabinoid receptor 1 (Rattus norvegicus, UniProt P20272); test: Binding affinity to rat CB1 receptor
[4] = organism: Homo sapiens; test: Selectivity ratio of Ki for human CB1 receptor to Ki for human CB2 receptor

Protein sequences, listed by entry. Tags and fused reporters are not part of them.
UniProt P34972, whole entry: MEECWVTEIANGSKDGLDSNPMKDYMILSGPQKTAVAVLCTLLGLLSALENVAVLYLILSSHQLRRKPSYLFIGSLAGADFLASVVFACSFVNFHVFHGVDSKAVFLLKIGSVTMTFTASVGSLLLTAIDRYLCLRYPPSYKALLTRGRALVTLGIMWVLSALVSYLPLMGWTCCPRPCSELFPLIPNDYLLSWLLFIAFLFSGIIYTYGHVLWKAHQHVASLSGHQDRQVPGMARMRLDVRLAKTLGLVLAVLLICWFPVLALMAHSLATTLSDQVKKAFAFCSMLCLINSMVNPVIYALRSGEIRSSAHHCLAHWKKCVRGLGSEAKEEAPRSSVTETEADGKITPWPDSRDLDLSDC
UniProt P20272, whole entry: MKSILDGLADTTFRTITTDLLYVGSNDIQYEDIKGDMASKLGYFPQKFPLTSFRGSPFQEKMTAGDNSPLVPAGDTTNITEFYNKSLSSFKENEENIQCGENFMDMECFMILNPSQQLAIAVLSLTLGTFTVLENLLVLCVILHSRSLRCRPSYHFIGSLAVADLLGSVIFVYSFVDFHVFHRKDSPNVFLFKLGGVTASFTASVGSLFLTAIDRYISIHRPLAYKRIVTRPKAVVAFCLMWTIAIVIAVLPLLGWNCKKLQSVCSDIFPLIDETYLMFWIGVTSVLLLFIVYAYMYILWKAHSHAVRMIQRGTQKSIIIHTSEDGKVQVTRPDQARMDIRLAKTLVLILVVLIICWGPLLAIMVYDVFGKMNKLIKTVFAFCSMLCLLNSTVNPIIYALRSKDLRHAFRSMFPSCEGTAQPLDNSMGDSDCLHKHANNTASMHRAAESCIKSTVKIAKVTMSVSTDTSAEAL

## C=C(C)[C@@H]1CCC(C)=C[C@H]1c1c(O)cc(CCCCC)cc1O [CANNABIDIOL]
[1]
  pKi: 5.54

## CCCCCCC(C)(C)c1cc(OC)c([C@H]2C=C(CO)[C@H]3C[C@@H]2C3(C)C)c(OC)c1
[2]
  pKi: 7.64

## CCCCC/C=C\C/C=C\C/C=C\C/C=C\CCCC(=O)OC(CO)CO [2-ARACHIDONOYLGLYCEROL]
[3]
  pKi: 6.33

## COCCn1c(C)c(C)s/c1=N\C(=O)C1C(C)(C)C1(C)C
[4]
  Ratio Ki: 425

From ChEMBL document CHEMBL3232786, “Therapeutic utility of cannabinoid receptor type 2 (CB(2)) selective agonists” (J Med Chem, 2013)
